Measurements: publication PMC5681660, “Reduced hepatitis B and D viral entry using clinically applied drugs as novel inhibitors of the bile acid transporter NTCP” (Scientific Reports, 2017)
Structures can show the parent of a compound that is named as a salt.

Molecular target: T1, human NTCP (Homo sapiens, UniProt Q14973)
T1 sequence (Q14973 1-349): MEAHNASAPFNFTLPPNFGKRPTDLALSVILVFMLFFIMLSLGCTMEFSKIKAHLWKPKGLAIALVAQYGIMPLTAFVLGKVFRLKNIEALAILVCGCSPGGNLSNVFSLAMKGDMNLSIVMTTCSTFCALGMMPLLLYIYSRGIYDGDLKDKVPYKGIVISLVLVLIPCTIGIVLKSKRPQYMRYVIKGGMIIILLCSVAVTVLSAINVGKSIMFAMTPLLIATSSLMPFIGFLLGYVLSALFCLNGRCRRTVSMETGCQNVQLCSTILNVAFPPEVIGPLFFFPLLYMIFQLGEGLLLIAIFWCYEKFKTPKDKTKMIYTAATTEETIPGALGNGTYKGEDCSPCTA
Test: Screening fluorescent competitive Myrcludex B-FITC binding assay (96-well, 10 µM drug)
Settings: for B-score binding assay / %NTCP binding: screening Myrcludex B-FITC binding, 10 µM drug; for %NTCP binding: Prestwick library; for remaining activity at 10 µM: 0.5 h, read-out: %NTCP binding, screening Myrcludex B-FITC binding, 10 µM drug, Prestwick library

SMILES | B-score binding assay | other results
CC(C)NNC(=O)c1ccncc1.O=P(O)(O)O [Iproniazide phosphate] | -0.749 | %NTCP binding: 47.8775%
C[C@]12N[C@H](Cc3ccccc31)c1ccccc12 [Dizocilpine maleate] | -0.089 | remaining activity at 10 µM: 82%
CCC(=O)OCC(=O)[C@@]1(OC(=O)CC)[C@H](C)C[C@H]2[C@H]3[C@H]([C@@H](O)C[C@@]21C)[C@@]1(C)C=CC(=O)C=C1C[C@H]3Cl [Alclometasone dipropionate] | -0.89 | 
Oc1c(Cl)cc(Cl)c2cccnc12 [Chloroxine] | 0.011 | 
CC(=O)NC1CCSC1=O (racemic) [N-Acetyl-DL-homocysteine Thiolactone] | -0.337 | %NTCP binding: 70.3255%
CC(=O)N[C@@H](CC(C)C)C(=O)O [N-Acetyl-L-leucine] | 2.858 | 
CCCCCN(CCCCC)C(=O)C(CCC(=O)[O-])NC(=O)c1ccc(Cl)c(Cl)c1.[Na+] (centres unmarked) [Lorglumide sodium salt] | -0.115 | 
CN(C)CCCC1(c2ccc(F)cc2)OCc2cc(C#N)ccc21 (centres unmarked) [Citalopram Hydrobromide] | -0.075 | 
Oc1ccc(C2CNCCc3c2cc(O)c(O)c3Cl)cc1 (centres unmarked) [Fenoldopam] | -2.435 | 
CC(C)n1c(/C=C/C(O)CC(O)CC(=O)O)c(-c2ccc(F)cc2)c2ccccc21 (centres unmarked) [Fluvastatin sodium salt] | -1.788 | 
CC(C)(C#N)c1cc(Cn2cncn2)cc(C(C)(C)C#N)c1 [Anastrozole] | -0.691 | 
C[n+]1ccccc1/C=N/O [Pralidoxime chloride] | -0.067 | remaining activity at 10 µM: 85.8%
O=C(COc1ccc(Cl)cc1)N1CCN(Cc2ccc3c(c2)OCO3)CC1 [Fipexide hydrochloride] | -0.978 | 
CC(CN(C)C)C(C)(O)Cc1ccc(Cl)cc1.Cl (centres unmarked) [Clobutinol hydrochloride] | -0.481 | %NTCP binding: 47.1079%
CN(CCCN1c2ccccc2CCc2ccccc21)CC(=O)c1ccc(Cl)cc1 [Lofepramine] | -1.093 | 
OCCN1CCN(CCCN2c3ccccc3Sc3ccc(C(F)(F)F)cc32)CC1 [Fluphenazine dihydrochloride] | -0.9 | 
CCOC(=O)n1ccn(C)c1=S [Carbimazole] | -2.481 | 
CCCCCC[C@H]1C(=O)O[C@H](C)[C@H](NC(=O)c2cccc(NC=O)c2O)C(=O)O[C@@H](C)[C@@H]1OC(=O)CC(C)C [Antimycin A] | -3.375 | 
CS(=O)(=O)c1ccc(C2=C(c3ccccc3)C(=O)OC2)cc1 [Rofecoxib] | -3.072 | 
COCC(=O)Nc1c(I)c(C(=O)NCC(O)CO)c(I)c(C(=O)N(C)CC(O)CO)c1I (centres unmarked) [Iopromide] | 1.185 | 
CC[N+](CC)(CC)CCC(O)(c1ccccc1)C1CCCCC1.[Cl-] (centres unmarked) [Tridihexethyl chloride] | -1.168 | %NTCP binding: 87.4487%
COc1ccc(CCN)cc1OC [Homoveratrylamine] | -0.867 | %NTCP binding: 53.5961%
CNCCc1ccccn1.CS(=O)(=O)O.CS(=O)(=O)O [Betahistine mesylate] | 0.863 | 
CN1CCC(OC(c2ccccc2)c2ccccc2)CC1 [Diphenylpyraline hydrochloride] | -2.941 | 
NCc1ccccc1CC(=O)N[C@@H]1C(=O)N2C(C(=O)O)=C(CSc3nnnn3CC(=O)O)CS[C@H]12 [Ceforanide] |  | B-score binding assay (B-score): 2.25
COc1cc(-c2ccc(N=Nc3ccc4c(S(=O)(=O)[O-])cc(S(=O)(=O)[O-])c(N)c4c3O)c(OC)c2)ccc1N=Nc1ccc2c(S(=O)(=O)[O-])cc(S(=O)(=O)[O-])c(N)c2c1O.[Na+].[Na+].[Na+].[Na+] [Chicago Sky Blue 6B] | -13.6 | 
CC(C)NCC(O)c1cc(O)cc(O)c1.CC(C)NCC(O)c1cc(O)cc(O)c1.O=S(=O)(O)O (centres unmarked) | -0.643 | %NTCP binding: 73.0014%
